The series relates to full thickness pig skin. The settings on record: female.
Text: (§1) HPLC was used to quantify delivered mass, and to calculate permabilities in lag times. Error bar represents mean+/−standard deviation.
as §1

Structures can show the parent of a compound that is named as a salt.

Take `CCCNC(C)C(=O)Nc1ccccc1C` (stereo not shown) [Prilocaine HCl]: the Lag time is 10.3 ± 1.1 h.
